The nature of the experiment: Selectivity index, ratio of CC50 for human HFF cells to EC50 for antiviral activity against HCMV AD169.

A value given as a limit tells only on which side of the number the result lay.

With `Nc1nc2c(ncn2COC(CO)CO)c(=O)[nH]1` [GANCICLOVIR], the “Ratio CC50/EC50” value was above 175.

The values above are taken from ChEMBL document CHEMBL4732039, “Introduction of a cyano group at the 2-position of an (R,S)-3-hydroxy-2-(phosphonomethoxy)propyl (HPMP) derivative of thymine elicits selective anti-HBV activity” (RSC Med Chem, 2021).
